“And” between values parts separate entries of the source, which are not always exact repeats. Equal entries are not always repeated.
The compounds below were run against cap-dependent endonuclease (RNP fraction containing PB1•PB2•PA complex) (Influenza A virus, UniProt P15659) (assay: biochemical). Conditions: CEN IC50.
Design: species or system A/WSN/33 virus

Row | Compound | IC50
1 | CC(C)=CCN1C[C@H](C(c2ccccc2)c2ccccc2)n2cc(C(=O)O)c(=O)c(O)c2C1=O [Example 182] | 99 nM
2 | Cc1nnc(CN2CN(C3c4ccccc4CCc4ccccc43)n3ccc(=O)c(O)c3C2=O)o1 [Example 256] | 38 nM
3 | COCCN1CN(C2c3ccccc3CCc3ccccc32)n2ccc(=O)c(O)c2C1=O [Example 258] | 42 nM
4 | CC(=O)OCC(C)N1CN(C2c3ccccc3CCc3ccccc32)n2ccc(=O)c(O)c2C1=O (centres unmarked) [Example 261] | 58 nM
5 | CC(C)(C)N1CN(C2c3ccccc3CCc3ccccc32)n2ccc(=O)c(O)c2C1=O [Example 265] | 172 nM
6 | Cc1noc(CN2CN(C3c4ccccc4CCc4ccccc43)n3ccc(=O)c(O)c3C2=O)n1 [Example 270] | 58 nM
7 | CC(N1CN(C2c3ccccc3CCc3ccccc32)n2ccc(=O)c(O)c2C1=O)C(F)(F)F (centres unmarked) [Example 274] | 38 nM and 157 nM
8 | CC(=O)OCCN1CN(C2c3ccccc3CCc3ccccc32)n2ccc(=O)c(O)c2C1=O [Example 276] | 53 nM
9 | CC(C)N1CN(C2c3cc(F)ccc3CCc3ccc(F)cc32)n2ccc(=O)c(O)c2C1=O [Example 279] | 56 nM
10 | CC(=O)N1CC[C@@H](N2CN(C3c4ccccc4CSc4ccccc43)n3ccc(=O)c(O)c3C2=O)C1 (some centres unmarked) [Example 289] | 31 nM
11 | CN1CCC(CN2CN(C3c4ccccc4CSc4ccccc43)n3ccc(=O)c(O)c3C2=O)CC1 (centres unmarked) [Example 292] | 155 nM
12 | O=C1c2c(O)c(=O)ccn2N(C2c3ccccc3CSc3ccccc32)CN1CCOC(F)(F)F (centres unmarked) [Example 297] | 45 nM
13 | CCOCCN1CN(C2c3ccccc3CSc3ccccc32)n2ccc(=O)c(O)c2C1=O (centres unmarked) [Example 312] | 19 nM
14 | COCC(COC)N1CN(C2c3ccccc3CSc3ccccc32)n2ccc(=O)c(O)c2C1=O (centres unmarked) [Example 318] | 130 nM
15 | CC(C)N1CN(C2c3ccccc3CSc3c(Cl)cccc32)n2ccc(=O)c(O)c2C1=O (centres unmarked) [Example 326] | 43 nM
16 | O=C1c2c(O)c(=O)ccn2N(C2c3ccccc3CSc3c(Cl)cccc32)CN1[C@@H]1C[C@@H]1F (some centres unmarked) [Example 332] | 48 nM
17 | COCC(COC)N1CN(C2c3cc(F)ccc3CSc3ccc(F)cc32)n2ccc(=O)c(O)c2C1=O (centres unmarked) [Example 340] | 101 nM
18 | CC(N1CN(C2c3ccccc3CSc3c(F)cccc32)n2ccc(=O)c(O)c2C1=O)C(F)(F)F (centres unmarked) [Example 342] | 99 nM
19 | C[C@@H](N1CN(C2c3ccccc3CSc3ccc(F)cc32)n2ccc(=O)c(O)c2C1=O)C(F)(F)F (some centres unmarked) [Example 345] | 97 nM
20 | CC(C)N1CN(C2c3ccccc3CSc3c(F)cccc32)n2ccc(=O)c(O)c2C1=O (centres unmarked) [Example 351] | 91 nM
21 | CN1CN(C2c3ccccc3CSc3c(F)cccc32)n2ccc(=O)c(O)c2C1=O (centres unmarked) [Example 354] | 25 nM
22 | CC(=O)OCCN1CN(C2c3ccccc3CSc3c(Cl)cccc32)n2ccc(=O)c(O)c2C1=O (centres unmarked) [Example 359] | 37 nM
23 | CC(CO)N1CN(C2c3ccccc3CCc3ccccc32)n2ccc(=O)c(O)c2C1=O (centres unmarked) [Example 362] | 84 nM
24 | O=C1c2c(O)c(=O)ccn2N(C2c3ccccc3CCc3ccccc32)CN1CC(O)CO (centres unmarked) [Example 364] | 112 nM

Row | Compound | IC50
25 | CC(C)C[C@H](CO)N1CN(C2c3ccccc3CSc3ccccc32)n2ccc(=O)c(O)c2C1=O (some centres unmarked) [Example 374] | 137 nM
26 | CC(C)C[C@@H](CO)N1CN(C2c3ccccc3CSc3ccccc32)n2ccc(=O)c(O)c2C1=O (some centres unmarked) [Example 377] | 24 nM
27 | CC(C)(C)[C@@H](CO)N1CN(C2c3ccccc3CSc3ccccc32)n2ccc(=O)c(O)c2C1=O (some centres unmarked) [Example 380] | 123 nM
28 | CC(C)(C)[C@H](CO)N1CN(C2c3ccccc3CSc3ccccc32)n2ccc(=O)c(O)c2C1=O (some centres unmarked) [Example 381] | 200 nM
29 | CC(C)N1CN(C2c3ccccc3COc3ccccc32)n2ccc(=O)c(O)c2C1=O (centres unmarked) [Example 391] | 264 nM
30 | COCCN1CN(C2c3ccccc3COc3ccc(F)cc32)n2ccc(=O)c(O)c2C1=O (centres unmarked) [Example 401] | 89 nM
31 | CC(C)N1CN(C2c3ccccc3COc3c(F)cccc32)n2ccc(=O)c(O)c2C1=O (centres unmarked) [Example 403] | 90 nM
32 | CC(N1CN(C2c3ccccc3COc3c(F)cccc32)n2ccc(=O)c(O)c2C1=O)C(F)(F)F (centres unmarked) [Example 406] | 119 nM
33 | CC(C)N1CN(C2c3ccc(Cl)cc3COc3ccccc32)n2ccc(=O)c(O)c2C1=O (centres unmarked) [Example 409] | 93 nM
34 | C[C@@H](N1CN(C2c3ccccc3COc3ccc(F)cc32)n2ccc(=O)c(O)c2C1=O)C(F)(F)F (some centres unmarked) [Example 410] | 265 nM
35 | C[C@H](N1CN([C@@H]2c3ccccc3CSc3ccccc32)n2ccc(=O)c(O)c2C1=O)C(F)(F)F [Example 415] | 285 nM
36 | C[C@H](N1CN([C@H]2c3ccccc3CSc3ccccc32)n2ccc(=O)c(O)c2C1=O)C(F)(F)F [Example 416] | 112 nM
37 | C[C@@H](N1CN([C@H]2c3ccccc3COc3c(F)cccc32)n2ccc(=O)c(O)c2C1=O)C(F)(F)F [Example 425] | 183 nM
38 | C[C@@H](N1CN([C@@H]2c3ccccc3SCc3cccc(Cl)c32)n2ccc(=O)c(O)c2C1=O)C(F)(F)F [Example 429] | 16 nM
39 | C[C@@H](N1CN([C@H]2c3ccccc3SCc3cccc(Cl)c32)n2ccc(=O)c(O)c2C1=O)C(F)(F)F [Example 430] | 168 nM
40 | C[C@H](N1CN([C@@H]2c3ccccc3SCc3cccc(Cl)c32)n2ccc(=O)c(O)c2C1=O)C(F)(F)F [Example 431] | 97 nM
41 | C[C@@H](N1CN([C@H]2c3ccc(C(F)(F)F)cc3CSc3ccccc32)n2ccc(=O)c(O)c2C1=O)C(F)(F)F [Example 432] | 155 nM
42 | C[C@H](N1CN([C@H]2c3ccccc3CSc3c(F)cccc32)n2ccc(=O)c(O)c2C1=O)C(F)(F)F [Example 453] | 186 nM
43 | C[C@@H](N1CN([C@H]2c3ccccc3CSc3ccc(Cl)cc32)n2ccc(=O)c(O)c2C1=O)C(F)(F)F [Example 455] | 25 nM
44 | C[C@H](N1CN([C@H]2c3ccccc3CSc3ccc(F)cc32)n2ccc(=O)c(O)c2C1=O)C(F)(F)F [Example 461] | 255 nM
45 | C[C@@H](N1CN([C@H]2c3cc(F)ccc3CSc3ccc(F)cc32)n2ccc(=O)c(O)c2C1=O)C(F)(F)F [Example 462] | 69 nM
46 | C[C@H](N1CN([C@H]2c3ccccc3CSc3ccc(Cl)cc32)n2ccc(=O)c(O)c2C1=O)C(F)(F)F [Example 475] | 164 nM
47 | CC(CN(C)C)N1CN(C2c3ccccc3CSc3ccccc32)n2ccc(=O)c(O)c2C1=O (centres unmarked) [Example 480] | 151 nM
48 | CC(CN(C)C)N1CN(C2c3ccccc3CSc3c(Cl)cccc32)n2ccc(=O)c(O)c2C1=O (centres unmarked) [Example 481] | 114 nM

Same assay, conditions: RNP from A/WSN/33 virus, capped Cy3/BHQ2 30mer RNA substrate, 60 minutes at room temperature; read-out: CEN IC50

Row | Compound | IC50
49 | COCCN1C[C@H](C(c2ccccc2)c2ccccc2)n2cc(Br)c(=O)c(O)c2C1=O [Example 63] | 170 nM
50 | CCCN1C[C@H](C(c2ccccc2)c2ccccc2)n2cc(C(=O)O)c(=O)c(O)c2C1=O [Example 181] | 49 nM
51 | CC(C)OCCN1C[C@H](C(c2ccccc2)c2ccccc2)n2cc(C(=O)O)c(=O)c(O)c2C1=O [Example 184] | 55 nM
52 | CCC(C)N1C[C@H](C(c2ccccc2)c2ccccc2)n2cc(C(=O)O)c(=O)c(O)c2C1=O (some centres unmarked) [Example 186] | 85 nM
53 | CCCC(C)N1C[C@H](C(c2ccccc2)c2ccccc2)n2cc(C(=O)O)c(=O)c(O)c2C1=O (some centres unmarked) [Example 187] | 85 nM
54 | CC(C)N1CN(Cc2ccc(Cl)c(Cl)c2)n2ccc(=O)c(O)c2C1=O [Example 199] | 236 nM
55 | CC(N1CN(C(c2ccccc2)c2ccccc2Cl)n2ccc(=O)c(O)c2C1=O)C(F)(F)F (centres unmarked) [Example 242] | 114 nM
56 | C[C@@H](N1CN(C(c2ccccc2)c2ccccc2Cl)n2ccc(=O)c(O)c2C1=O)C(F)(F)F (some centres unmarked) [Example 243] | 76 nM
57 | O=C1c2c(O)c(=O)ccn2N(C2c3ccccc3CCc3ccccc32)CN1CCF [Example 262] | 32 nM
58 | O=C1c2c(O)c(=O)ccn2N(C2c3ccccc3CCc3ccccc32)CN1CC(F)(F)F [Example 263] | 85 nM
59 | COCCCN1CN(C2c3ccccc3CCc3ccccc32)n2ccc(=O)c(O)c2C1=O [Example 267] | 29 nM
60 | CS(=O)(=O)CCN1CN(C2c3ccccc3CCc3ccccc32)n2ccc(=O)c(O)c2C1=O [Example 269] | 73 nM
61 | CC(C)N1CN(C2c3ccccc3CCc3c(Cl)cccc32)n2ccc(=O)c(O)c2C1=O (centres unmarked) [Example 282] | 36 nM
62 | CC(C)N1CN(C2c3ccc(F)cc3CCc3cc(F)ccc32)n2ccc(=O)c(O)c2C1=O [Example 284] | 42 nM
63 | O=C1c2c(O)c(=O)ccn2N(C2c3ccccc3CSc3ccccc32)CN1CCCF (centres unmarked) [Example 298] | 44 nM
64 | O=C1c2c(O)c(=O)ccn2N(C2c3ccccc3CSc3ccccc32)CN1CC(F)(F)F (centres unmarked) [Example 306] | 76 nM
65 | CC(=O)OCCN1CN(C2c3ccccc3CSc3ccccc32)n2ccc(=O)c(O)c2C1=O (centres unmarked) [Example 325] | 32 nM
66 | CC(C)N1CN(C2c3ccccc3CSc3ccc(Cl)cc32)n2ccc(=O)c(O)c2C1=O (centres unmarked) [Example 328] | 29 nM
67 | C[C@H](CO)N1CN(C2c3ccccc3CSc3ccccc32)n2ccc(=O)c(O)c2C1=O (some centres unmarked) [Example 373] | 65 nM
68 | O=C1c2c(O)c(=O)ccn2N(C2c3ccccc3CSc3c(Cl)cccc32)CN1CCO (centres unmarked) [Example 382] | 32 nM
69 | COCCN1CN(C2c3ccccc3COc3cc(F)ccc32)n2ccc(=O)c(O)c2C1=O (centres unmarked) [Example 397] | 55 nM
70 | COCCN1CN(C2c3cc(F)ccc3COc3cc(F)ccc32)n2ccc(=O)c(O)c2C1=O (centres unmarked) [Example 402] | 85 nM
71 | C[C@@H](N1CN([C@H]2c3cc(F)ccc3CSc3ccccc32)n2ccc(=O)c(O)c2C1=O)C(F)(F)F [Example 441] | 44 nM
72 | C[C@@H](N1CN([C@H]2c3ccccc3CSc3c(Cl)cccc32)n2ccc(=O)c(O)c2C1=O)C(F)(F)F [Example 450] | 23 nM
73 | C[C@@H](N1CN([C@@H]2c3ccccc3SCc3cccc(F)c32)n2ccc(=O)c(O)c2C1=O)C(F)(F)F [Example 456] | 32 nM
74 | C[C@H](N1CN([C@H]2c3ccc(F)cc3CSc3ccccc32)n2ccc(=O)c(O)c2C1=O)C(F)(F)F [Example 460] | 85 nM

From US9815835B2, “Substituted polycyclic carbamolypyridone derivative” (priority 2009, dated 2017)
